Molecular target: S. aureus Newman Δspa (Protein A deficient strain), bacterial surface
Test: flow cytometry on fixed S. aureus Δspa, Fc fragment 5 ug/mL

Alexa-488 labeled IgG1 Fc fragment (from UniProt P01857 104-330)
geomean fluorescent signal: 12
